Results: patent US10017767B2, “Targets in multiple myeloma and other disorders” (FONDAZIONE CENTRO SAN RAFFAELE, priority 2012, dated 2018)

Sequences of proteins named here, by UniProt entry; tags and fusion partners are left off.
UniProt Q13043, whole entry: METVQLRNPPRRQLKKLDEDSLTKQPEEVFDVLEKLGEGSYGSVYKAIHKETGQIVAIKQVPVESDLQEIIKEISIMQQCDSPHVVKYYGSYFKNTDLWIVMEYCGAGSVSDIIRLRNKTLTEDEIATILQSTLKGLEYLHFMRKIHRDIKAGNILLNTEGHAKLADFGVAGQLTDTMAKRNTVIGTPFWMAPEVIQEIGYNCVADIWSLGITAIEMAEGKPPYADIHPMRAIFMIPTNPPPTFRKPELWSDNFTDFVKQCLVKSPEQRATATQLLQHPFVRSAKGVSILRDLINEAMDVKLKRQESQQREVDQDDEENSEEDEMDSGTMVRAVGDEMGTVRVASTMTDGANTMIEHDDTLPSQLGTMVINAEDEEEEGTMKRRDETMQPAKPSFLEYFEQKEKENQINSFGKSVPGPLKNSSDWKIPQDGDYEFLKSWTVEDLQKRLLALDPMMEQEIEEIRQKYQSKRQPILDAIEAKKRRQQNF

How the values were obtained:
[1] = test system: KMS-20 cell line, with YAP1 deletion; test: Cell growth in YAP1-deleted KMS-20; type: cell-based; details: KMS-20, YAP1 deleted
MM cell lines = test: Cell growth in a large panel of MM cell lines; type: cell-based
YAP1 = YAP1 levels in MM cells after treatment
STK4 = STK4 (Homo sapiens, UniProt Q13043); test: STK4 biochemical kinase inhibition; details: read-out: biochemical IC50 for STK4

IC50 (STK4): 8 nM
SMILES: CN(C1CC1)S(=O)(=O)c1ccc(-c2cnc(N)c(-c3ccc4c(c3)CCNC4=O)c2)cc1
activity against KMS-20 [1]: not sensitive
effect on cell growth / proliferation in MM cell lines (MM cell lines): reduced cell growth and induced apoptosis in MM cell lines
YAP1 levels after treatment (YAP1): YAP1 expression was induced
